Laboratory results published in ChEMBL document CHEMBL1143222, “Synthesis and in vitro activity of N'-cyano-4-(2-phenylacetyl)-N-o-tolylpiperazine-1-carboximidamide P2X7 antagonists” (Bioorg Med Chem Lett, 2008).

Biological target: T1, P2X purinoceptor 7 (Rattus norvegicus, UniProt Q64663)
T1 sequence (Q64663 whole entry): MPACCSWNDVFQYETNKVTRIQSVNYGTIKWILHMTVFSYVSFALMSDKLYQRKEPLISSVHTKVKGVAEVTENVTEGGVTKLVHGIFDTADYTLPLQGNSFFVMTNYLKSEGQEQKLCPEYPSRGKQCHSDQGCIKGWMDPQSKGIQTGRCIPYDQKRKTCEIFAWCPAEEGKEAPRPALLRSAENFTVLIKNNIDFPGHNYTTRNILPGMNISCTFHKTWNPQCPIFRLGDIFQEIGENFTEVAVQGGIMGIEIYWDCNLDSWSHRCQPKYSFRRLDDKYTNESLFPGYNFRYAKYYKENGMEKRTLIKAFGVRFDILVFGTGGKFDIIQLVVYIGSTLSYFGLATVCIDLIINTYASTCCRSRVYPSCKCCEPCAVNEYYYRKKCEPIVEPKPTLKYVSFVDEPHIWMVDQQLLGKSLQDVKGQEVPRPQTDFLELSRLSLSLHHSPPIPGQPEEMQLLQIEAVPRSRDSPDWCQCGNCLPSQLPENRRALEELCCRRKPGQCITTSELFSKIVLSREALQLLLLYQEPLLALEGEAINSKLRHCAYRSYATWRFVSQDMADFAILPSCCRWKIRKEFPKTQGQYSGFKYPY
Experiment: Antagonist activity at rat recombinant P2X7 receptor assessed as inhibition of calcium flux by FLIPR assay
Assay type: functional

## COc1ccc(CC(=O)NC(N/C(=N/C#N)Nc2cccc3ncccc23)C(C)(C)C)cc1OC (stereo unspecified)
  IC50: 18 nM
